{"source": "patent US20230192660A1", "about": "(priority 2020, published 2023)", "biological_target": "SARS-Co-V2 MPro (Severe acute respiratory syndrome coronavirus 2, UniProt P0DTD1)", "experiment": "cell-based", "conditions": "HEK293 cells; estimated from images (FIG. 3) and immunoblots (FIG. 4)", "data": [{"molecule": "CCCC[C@H](NC(=O)[C@@H]1[C@@H]2[C@H](CN1C(=O)[C@@H](NC(=O)NC1(CS(=O)(=O)C(C)(C)C)CCCCC1)C(C)(C)C)C2(C)C)C(=O)C(=O)NC1CC1", "note": "[narlaprevir]", "values": [{"measurement": "EC50", "value": "1000 to 3200", "unit": "nM"}]}]}
